{
  "source": "patent US7851599B2",
  "about": "(Philogen S.p.A., priority 2006, dated 2010)",
  "key": {"orthotopic DanG tumors [1]": {"test_system": "orthotopic DanG tumors", "experiment": "NK cell depletion (anti ASGM-1) in the orthotopic DanG model, tumor volume", "assay_type": "in vivo, nude mice", "conditions": "4.29 MIU/kg BW days 7-11, 14-18", "description": "NK cell depletion was performed as previously described. (Peron J M, Couderc B, Rochaix P, Douin-Echinard V, Asnacious A, Souque A, Voigt J J, Bus ail L, Vine J P, Favre G, Treatment of murine hepatocellular carcinoma using genetically modified cells to express interleukin-12. J Gastroenterology Hepatic 2004; 19:388-396.) Briefly, mice were injected i.p. with 50/μl anti asialo-GM-1 (ASGM1) Ab 3 days before tumor cell injection and every 4 days for a total of 6 injections. Quality of NK cell depletion was monitored by flow cytometry and cytotoxicity assay.\nTo further identify the immune effector cells mediating L19IL2 induced tumor growth inhibition, tumor specimens were immunohistologically assessed for CD11b+ cells, which predominantly include macrophages and for NK cells. […] To further substantiate the suspected role of NK cells, we tested whether NK cell depletion via an anti ASGM-1 antibody interfered with the therapeutic efficacy of L19-IL-2. For this purpose, mice orthotopically engrafted with DanG cells, were randomly assigned to the following treatment groups: NK competent+saline treatment, NK deficient+saline treatment, NK deficient+L19IL2 treatment (4.29 MIU/kg BW L19 on days 7-11, 14-18) and NK competent+L19IL2 treatment (4.29 MIU/kg BW L19 on days 7-11, 14-18).\nFIG. 8 Identification of the immune effector cells mediating L19IL2 induced tumor regression. […]"}, "[2]": {"test_system": "non-transformed pancreatic tissue", "experiment": "Histological analysis of tumors and residual non-transformed pancreatic tissue for pancreatitis", "assay_type": "in vivo, nude mice", "conditions": "DanG-bearing mice treated with L19IL2 (data not shown)", "description": "(§1) Surgically resected human and murine tissue samples were snap-frozen in liquid nitrogen and after fixation in PFA 4%, pH 7 for 20 minutes, 4 μm cryostat sections of the frozen tissue were analyzed immunohistochemically using the avidin-biotin-technique as described previously. Slides were incubated for 1 hour with the following primary antibodies: biotinylated L19IL2 (30 μg/ml), monoclonal mouse anti-human CD31 at a 1:100 dilution, rat anti-mouse CD11b at a 1:50 dilution, biotinylated mouse anti-mouse CD161b/c/NK1.1 at a 1:50 dilution, biotinylated mouse anti-human pancytokeratin at a 1:50 dilution. Sections stained with PBS instead of the primary antibody were used as a negative control. Proliferating cells were detected with a monoclonal mouse anti human Ki67 Ab applying the Animal Research Kit. […] Quantitative immunohistochemical analysis for the area of vital (non-necrotic) tumor tissue was carried out by computer aided imaging analysis using Axiovision 4.2 software (Zeiss, Jena, Germany). For quantification of proliferating, apoptotic and inflammatory cells, 20 randomly selected measurement areas (680×510 μm, magnification×20) of each tumor specimen were analyzed and for evaluation of ED-B FN expression, 10 areas (1390/×/1000 μm, magnification×10) were scanned. […] For quantitative analysis of necrotic tumor area H&E sections were scanned at low power (×2.5). […]"}, "[3]": {"test_system": "human pancreatic cancer cell line MiaPaca", "experiment": "Orthotopic MiaPaca pancreatic cancer xenograft, tumor volume", "assay_type": "in vivo, nude mice"}, "serum lipase": {"test_system": "serum lipase", "experiment": "Serum lipase as surrogate marker of pancreatitis", "assay_type": "in vivo, nude mice", "conditions": "DanG-bearing mice; end of treatment"}, "[4]": {"test_system": "human pancreatic cancer cell line DanG", "experiment": "Orthotopic DanG pancreatic cancer xenograft, tumor volume", "assay_type": "in vivo, nude mice", "conditions": "for tumor volume, % of that observed in control mice: sacrifice day 21; for tumor load compared to control mice: separate experiment, 4.29 MIU/kg BW L19IL2 or equimolar scFv L19 for 10 days"}, "orthotopic DanG tumors [5]": {"test_system": "orthotopic DanG tumors", "experiment": "Histology and immunohistochemistry of DanG tumors (necrosis, TUNEL, Ki67, CD11b, NK1.1)", "assay_type": "in vivo, nude mice", "description": "as §1"}, "[6]": {"test_system": "MiaPaca cells stably transfected with an Angiopoetin 2 DNA construct (MiaPaca-A2)", "experiment": "Metastatic orthotopic MiaPaca-A2 model, primary tumor and lymph node metastases", "assay_type": "in vivo, nude mice", "description": "Orthotopic transplantation was carried out as described.\nSurgically resected human and murine tissue samples were snap-frozen in liquid nitrogen and after fixation in PFA 4%, pH 7 for 20 minutes, 4 μm cryostat sections of the frozen tissue were analyzed immunohistochemically using the avidin-biotin-technique as described previously. Slides were incubated for 1 hour with the following primary antibodies: biotinylated L19IL2 (30 μg/ml), monoclonal mouse anti-human CD31 at a 1:100 dilution, rat anti-mouse CD11b at a 1:50 dilution, biotinylated mouse anti-mouse CD161b/c/NK1.1 at a 1:50 dilution, biotinylated mouse anti-human pancytokeratin at a 1:50 dilution. Sections stained with PBS instead of the primary antibody were used as a negative control. Proliferating cells were detected with a monoclonal mouse anti human Ki67 Ab applying the Animal Research Kit. Apoptotic cells were proven by Terminal deoxynucleotidyl transferase mediated dUTP nick end labeling (TUNEL) assay using TumorTACS in situ Apoptosis Detection Kit. Both procedures were carried out following the manufacturer's instructions except that 3-amino-9-ethylcarbazole (AEC) was used as the substrate-chromogen. Negative controls were included by omitting the primary antibody (Animal Research Kit) or the terminal deoxynucleotidyl transferase (TUNEL). Quantitative immunohistochemical analysis for the area of vital (non-necrotic) tumor tissue was carried out by computer aided imaging analysis using Axiovision 4.2 software (Zeiss, Jena, Germany). For quantification of proliferating, apoptotic and inflammatory cells, 20 randomly selected measurement areas (680×510 μm, magnification×20) of each tumor specimen were analyzed and for evaluation of ED-B FN expression, 10 areas (1390/×/1000 μm, magnification×10) were scanned. […] For quantitative analysis of necrotic tumor area H&E sections were scanned at low power (×2.5). Total and necrotic tumor area was marked on the screen and areas were calculated by the image analysis system, and the ratio tumor necrosis area/total tumor area was given in percentages.\nGenomic DNA of mouse lymph nodes was extracted using the QIAamp DNA Mini Kit according to the manufacturer's recommended protocol. The presence of human specific DNA was proven by polymerase chain reaction (PCR) amplifying an 850 bp fragment of the α-satellite region of the human chromosome 17 using the forward primer 5′-[…]-3′ and the reverse primer 5′-[…]-3′ according to the protocol reported by Becker et al. (Becker M, Nitsche A, Neumann C, Aumann J, Junghahn I, fichtner I, Sensitive PCR method for the detection and real time quantification of human cells in xenotransplantation systems. Br J Cancer 2002;87:1328-1335). […]"}, "serum CA 19-9": {"test_system": "serum CA 19-9", "experiment": "Serum CA 19-9 levels in mice bearing orthotopic DanG tumors", "assay_type": "in vivo, nude mice"}, "[7]": {"test_system": "orthotopic DanG pancreatic cancer", "experiment": "Long-term effects after L19IL2 therapy in the orthotopic DanG model"}, "[8]": {"conditions": "4.29 MIU/kg BW for 10 days (days 60-64, 67-71)"}},
  "data": [
    {"substance": "L19IL2: recombinant fusion protein: IL-2 conjugated to the homodimeric scFv L19, specific for the ED-B of fibronectin", "values": [
      {"measurement": "effectiveness in NK competent versus NK deficient mice", "setting": "orthotopic DanG tumors [1]", "value": "more than 5 fold"},
      {"measurement": "signs of acute pancreatitis (HE, NK 1.1 and CD11b staining)", "setting": "[2]", "value": "no signs of acute pancreatitis were detectable"},
      {"measurement": "tumor load, % of control", "setting": "[3]; 1.43 MIU/kg BW IL-2 equivalents, days 40-44, 47-51, killed day 54", "value": 10.4, "unit": "%"},
      {"measurement": "superiority to untargeted IL-2 (tumor load)", "setting": "[3]; 1.43 MIU/kg BW, equimolar amounts", "value": 8, "unit": "fold"},
      {"measurement": "effectiveness relative to untargeted IL-2 (tumor growth)", "setting": "[3]; 4.29 MIU/kg BW, equimolar amounts", "value": 3, "unit": "fold"},
      {"measurement": "tumor volume, % of control", "setting": "[3]; high dosage 4.29 MIU/kg BW IL-2 equivalents, days 40-44, 47-51, killed day 54", "value": 16.8, "unit": "%"},
      {"measurement": "serum lipase concentrations compared to controls", "setting": "serum lipase", "value": "neither L19IL2 nor untargeted IL-2 interfered"},
      {"measurement": "tumor volume, % of that observed in control mice", "setting": "[4]; DanG, 1.43 MIU/kg BW IL-2 equivalents i.v. for 10 days (days 7-11, 14-18)", "value": 21.4, "unit": "%"},
      {"measurement": "tumor volume, % of that observed in control mice", "setting": "[4]; DanG, 4.29 MIU/kg BW IL-2 equivalents i.v. for 10 days (days 7-11, 14-18)", "value": 2.7, "unit": "%"},
      {"measurement": "tumor load, % of that observed in controls", "setting": "[4]; DanG, 4.29 MIU/kg BW five times by the week, days 7-11 and 14-18, killed day 21", "value": 12, "unit": "%"},
      {"measurement": "tumor growth compared to controls, all regimens", "setting": "[4]; DanG, 4.29 MIU/kg BW once weekly, thrice weekly or five times by the week", "value": "significant tumor growth delay"},
      {"measurement": "reduction of tumor volume relative to gemcitabine therapy", "setting": "[4]; DanG, L19IL2 i.v. 4.29 MIU/kg BW days 8-12, 15-19 vs gemcitabine 250 mg/kg BW days 7, 14", "value": 2.3, "unit": "fold"},
      {"measurement": "mice with complete remission", "setting": "[4]; DanG, gemcitabine 250 mg/kg BW days 7, 14, L19IL2 4.29 MIU/kg BW days 8-12, 15-19, or both", "value": 37, "unit": "%"},
      {"measurement": "tumor load compared to control mice", "setting": "[4]; DanG", "value": "statistically significant decrease of tumor load"},
      {"measurement": "tumor load, % of that observed in controls", "setting": "[4]; two applications of L19IL2", "value": 25, "unit": "%"},
      {"measurement": "necrosis, share of tumor area", "setting": "orthotopic DanG tumors [5]; 4.29 MIU/kg BW L19IL2 i.v., H&E", "value": "42±10.86", "unit": "%"},
      {"measurement": "apoptotic cell index (TUNEL) versus vehicle treated controls", "setting": "orthotopic DanG tumors [5]; residual vital tumor tissue, 4.29 MIU/kg BW L19IL2", "value": "no relevant difference"},
      {"measurement": "median lymph node area, % of vehicle-treated controls", "setting": "[6]; [8]", "value": "less than 20%"},
      {"measurement": "primary tumor volume", "setting": "[6]; [8]", "value": "significant reduction of primary tumor volume"},
      {"measurement": "mice with human-specific DNA PCR positive lymph nodes", "setting": "[6]; 850-bp fragment of human chromosome 17, 4.29 MIU/kg BW for 10 days", "value": 33, "unit": "%"},
      {"measurement": "mice with large cytokeratin-immunoreactive cells in lymph nodes", "setting": "[6]; pancytokeratin immunostaining, 4.29 MIU/kg BW for 10 days", "value": 20, "unit": "%"},
      {"measurement": "serum CA 19-9 levels in tumor bearing mice", "setting": "serum CA 19-9; after treatment (data not shown)", "value": "significant decrease"},
      {"measurement": "serum CA 19-9 levels compared to controls", "setting": "serum CA 19-9; day three after start of treatment", "value": "two fold lower"},
      {"measurement": "serum tumor markers versus baseline at start of therapy", "setting": "serum CA 19-9; end of the experiment", "value": "did not differ significantly from baseline"},
      {"measurement": "mice with tumor relapse (elevated serum CA 19-9) and death due to tumor burden", "setting": "[7]; DanG, 4.29 MIU/kg BW days 7-11, 14-18, fourth to eighth week after termination of therapy", "value": "six out of 10"},
      {"measurement": "mice surviving without boost of serum CA 19-9, no tumor recurrence at autopsy (cured)", "setting": "[7]; DanG, 4.29 MIU/kg BW days 7-11, 14-18, three months after cessation of therapy", "value": "Four out of 10"},
      {"measurement": "complete remission and lack of tumor relapse, share of mice", "setting": "[7]; long-term surviving mice bearing pancreatic cancer", "value": 40, "unit": "%"}
    ]},
    {"substance": "scFv L19: human homodimeric single chain Fv antibody fragment L19 specific for the ED-B domain of fibronectin", "values": [
      {"measurement": "tumor load compared to control mice", "setting": "[4]; DanG", "value": "failed to achieve any growth inhibitory effect"}
    ]}
  ]
}
